## scFv variants of Ab-91 (heavy chain) against a SARS-CoV-2 spike peptide

All variants were tested on one target, the spike HR2 peptide PDVDLGDISGINAS (SARS-CoV-2).

Parent: Ab-91, a human scFv built as VL, a 15-residue (Gly4Ser)3 linker, VH. Only the CDRs of the heavy chain vary.
VL: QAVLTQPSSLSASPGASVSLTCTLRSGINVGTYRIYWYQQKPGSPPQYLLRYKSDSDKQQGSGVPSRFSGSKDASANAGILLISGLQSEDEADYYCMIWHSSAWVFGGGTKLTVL
VH: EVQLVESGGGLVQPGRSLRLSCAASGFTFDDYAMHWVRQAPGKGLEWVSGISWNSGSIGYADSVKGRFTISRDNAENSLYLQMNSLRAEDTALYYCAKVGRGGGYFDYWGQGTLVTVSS

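AAYL51 was designed without a model: most single CDR substitutions and a random sample of double and triple ones. The scFvs were displayed on barcoded MATa yeast, the peptide on MATalpha yeast. After mating in shaken culture at 30 °C for 16 h, diploids were selected and their barcode pairs sequenced. Each replicate has its own calibration line, from reference interactions of the BCL2 family. The assay was run in three technical replicates.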

Positions count from residue 1 of the parent VH; D62Y puts Y in place of D. Numbers give log10(Kd / nM), so 0 is 1 nM and 3 is 1 µM. Smaller is tighter. The mean shown is taken over the replicates in which the pair was detected. Where no diploid with the target was found in any replicate, the entry reads "not detected": below detection, most likely a poor binder, though not proof of it. Empty control strains, which show no peptide, gave a signal in 21% of pairings with library AAYL51; the median was 4.54 and 95% of these signals were weaker than 3.26. No background was subtracted. The control count says in how many pairings with the empty strains this scFv gave a signal. In this assay the parent's reference entry averaged 1.86; its copy inside this library read 0.88.

changes | mean, log10 nM | detected | signal with controls
D62Y+G102H+G103R | not detected | 0 of 3 | 1 of 9
F27H+S55P+D62P | not detected | 0 of 3 | 3 of 9
A33R+G59F+D107W | 5.74 | 2 of 3 | 3 of 9
D30T+G103H | 4.56 | 1 of 3 | 1 of 9
I51A+G104W+Y105R | not detected | 0 of 3 | 0 of 9
G26L+S52N+G59A | not detected | 0 of 3 | 0 of 9
Y32R+D62K+G102Y | not detected | 0 of 3 | 0 of 9
D30F+S55E+G100I | 3.26 | 2 of 3 | 1 of 9
W53M+S57Y+K65Q | not detected | 0 of 3 | 0 of 9
F27K+H35I | not detected | 0 of 3 | 0 of 9
M34C+G56T | not detected | 0 of 3 | 2 of 9
F27Y+D30I+D31G | 4.09 | 1 of 3 | 3 of 9
S55H+A61E+D107L | 4.10 | 1 of 3 | 1 of 9
S63F+G100K+G103E | 3.61 | 1 of 3 | 0 of 9
T28V+M34L+F106N | 4.79 | 1 of 3 | 0 of 9
T28K+H35P+Y105K | 4.29 | 2 of 3 | 4 of 9
D30T+H35L+W53N | not detected | 0 of 3 | 2 of 9
G26R+A61R+V99L | not detected | 0 of 3 | 1 of 9
R101A+D107Y | not detected | 0 of 3 | 1 of 9
Y32I+S55Q+K65D | 6.29 | 1 of 3 | 3 of 9
G56P+G100Q | not detected | 0 of 3 | 1 of 9
D30L+D31N+D62Y | not detected | 0 of 3 | 1 of 9
T28Q+S57R+G102C | not detected | 0 of 3 | 1 of 9
A33Y+Y108Q | not detected | 0 of 3 | 1 of 9
D30M+Y60W+D62G | not detected | 0 of 3 | 1 of 9
D30C+I58W+D62G | 4.63 | 1 of 3 | 1 of 9
M34A+V64E+G102I | not detected | 0 of 3 | 0 of 9
H35R+I51F+G56S | 5.28 | 3 of 3 | 9 of 9
W53G+Y105T+Y108N | 5.51 | 3 of 3 | 7 of 9
M34F+N54I+G100Y | 4.24 | 2 of 3 | 1 of 9
D31C+S55C+G104P | 3.57 | 2 of 3 | 1 of 9
A61L+S63Y+V99C | 3.08 | 1 of 3 | 0 of 9
F29E+A33N+G50W | not detected | 0 of 3 | 0 of 9
G26V+G104Y | not detected | 0 of 3 | 3 of 9
S57P+S63W+F106D | 5.20 | 2 of 3 | 8 of 9
A33L+G56S+D62V | not detected | 0 of 3 | 1 of 9
S63F+V99F+G104F | 3.60 | 1 of 3 | 3 of 9
M34Y+I51D+G102H | 4.39 | 3 of 3 | 1 of 9
M34K+N54R+K65N | not detected | 0 of 3 | 3 of 9
A33W+M34V+S52G | 4.98 | 2 of 3 | 3 of 9
D62L+R101W+G103N | 4.56 | 3 of 3 | 1 of 9
Y32P+G56F+A61C | 5.48 | 1 of 3 | 3 of 9
D31K+A33N+D107E | not detected | 0 of 3 | 1 of 9
G56H+D62P+Y105V | 2.87 | 3 of 3 | 5 of 9
Y60V+A61S+G103E | not detected | 0 of 3 | 0 of 9
H35I+S55W+G103H | not detected | 0 of 3 | 0 of 9
F29V+Y60D+G100V | 5.07 | 1 of 3 | 0 of 9
Y32F+S55G | not detected | 0 of 3 | 2 of 9
D30G+A33F+I51Q | 5.35 | 2 of 3 | 0 of 9
D30H+W53L+G103I | 1.13 | 3 of 3 | 6 of 9
G56C+Y108V | 0.82 | 3 of 3 | 6 of 9

From the AlphaSeq antibody data of Engelhart et al. 2022 (doi:10.1038/s41597-022-01779-4), copy in the FLAb collection.